Measured values from patent publication US10144746B2 (GLOBAL BLOOD THERAPEUTICS, INC., priority 2015, dated 2018).

The chains behind the UniProt entries cited, without tags or fusion partners. Residues count along the entry.
UniProt P03952, 20-390 partner: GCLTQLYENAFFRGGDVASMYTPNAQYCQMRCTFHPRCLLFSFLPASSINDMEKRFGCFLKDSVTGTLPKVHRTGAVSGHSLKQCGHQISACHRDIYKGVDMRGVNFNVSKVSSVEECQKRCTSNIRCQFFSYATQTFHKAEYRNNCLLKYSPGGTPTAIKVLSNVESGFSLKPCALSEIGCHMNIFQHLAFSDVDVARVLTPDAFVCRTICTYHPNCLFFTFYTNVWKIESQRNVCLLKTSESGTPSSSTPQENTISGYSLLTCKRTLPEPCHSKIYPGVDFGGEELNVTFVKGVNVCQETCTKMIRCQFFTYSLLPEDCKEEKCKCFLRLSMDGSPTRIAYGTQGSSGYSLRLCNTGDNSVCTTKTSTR
UniProt P03952, 391-638: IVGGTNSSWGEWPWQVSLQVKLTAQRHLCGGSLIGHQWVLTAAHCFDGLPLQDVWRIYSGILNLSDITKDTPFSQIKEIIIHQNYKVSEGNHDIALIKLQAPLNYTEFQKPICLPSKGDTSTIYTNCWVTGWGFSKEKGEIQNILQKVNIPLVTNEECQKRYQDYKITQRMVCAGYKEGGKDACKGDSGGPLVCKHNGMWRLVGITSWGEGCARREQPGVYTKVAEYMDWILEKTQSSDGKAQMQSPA

Molecular target: Human plasma kallikrein (Homo sapiens (Human), UniProt P03952)
Test: In vitro plasma kallikrein inhibition assay (chromogenic substrate D-Pro-Phe-Arg-pNa, absorbance at 405 nm, IC50 determination)
Type: biochemical
Experimental: In Vitro Plasma Kallikrein Inhibition Assay
The chromogenic substrate D-Pro-Phe-Arg-pNa, 2HCl (BIOPHEN CS-31(02) from Hyphen BioMed, Neuville-Sur-oise, France) was dissolved in 5 mL deionized water and stored at 4° C. […] All other chemicals were of analytical grade.
A stock solution of 7 μM in 50% glycerol was stored at −20° C.
Enzyme reactions were conducted in “assay buffer” comprised of 20 mM HEPES at pH 7.4, 150 mM NaCl, 0.1% PEG-8000 and 0.01% Triton X-100.
Both enzyme and substrate were diluted in assay buffer.
Plate measurements were conducted using a SPECTROStar Nano reader (BMG Labtech, San Francisco, Calif., USA). […] We used discrete wavelength, precise, kinetic reads of 15 cycles with a 60 sec cycle time.
Determination of IC50 values
The test compound was dissolved in 100% DMSO. The compounds were serially diluted in DMSO in a 7 point dose response. For the assays, 66.5 μL of protease solution (protease in assay buffer) was added per well followed by the addition of 8.5 μL of compound in 100% DMSO. […] The plate was placed again on the shaker for 5 sec, spun at 2000 rpm for 5 sec and read on the spectrophotometer. […] The IC50 value was calculated from the plot of rate vs. inhibitor concentration by a 4 parameter logistic equation: y=A+((B−A)/([…])) […]

Row | Substance | KLKB1 pIC50
1 | (1R,8S)-N-[(6-amino-2,4-dimethylpyridin-3-yl)methyl]-12-(2,4-difluorophenyl)-15-oxatetracyclo[6.6.1.0^2,7.0^9,14]pentadeca-2,4,6,9,11,13-hexaene-4-carboxamide [Example 7] | 6.66
2 | (1R,8S)-N-{[6-amino-2-methyl-4-(oxan-4-yl)pyridin-3-yl]methyl}-12-(2,4-difluorophenyl)-15-oxatetracyclo[6.6.1.0^2,7.0^9,14]pentadeca-2,4,6,9,11,13-hexaene-4-carboxamide [Example 92] | 6.81
